This note sets out measurements from US20080119432, “Inhibition Of Metallo-Beta-Lactamase By Rna” (published 2008).

Series [1] has as its target T1, metallo-beta-lactamase (beta-lactamase II, 5/B/6) (Bacillus cereus 5/B/6) (UniProt P14488).
T1 sequence: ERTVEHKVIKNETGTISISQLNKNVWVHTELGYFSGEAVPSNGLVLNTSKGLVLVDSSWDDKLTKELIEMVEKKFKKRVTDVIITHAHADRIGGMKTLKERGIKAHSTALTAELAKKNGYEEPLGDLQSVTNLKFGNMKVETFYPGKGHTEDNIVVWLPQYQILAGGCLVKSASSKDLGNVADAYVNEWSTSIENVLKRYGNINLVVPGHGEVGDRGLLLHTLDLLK
Put plainly: inhibition. The conditions noted are these: preliminary; random pool before first SELEX round; 4.3 mM cephalosporin C, 50 mM MOPS pH 7.0.

In series [2] the target is T2, metallo-beta-lactamase (beta-lactamase II, 5/B/6) (Bacillus cereus 5/B/6, UniProt P14488 SEQ:2-228).
T2 sequence: T1 sequence
Nature of the series: inhibition; 4.3 mM cephalosporin C, 50 mM MOPS pH 7.0. The conditions noted are these: tags: expressed in E. coli TAP56 from pRE2/bla.

By IC50 is commonly meant the midpoint of a concentration-inhibition curve. High values mean weaker potency, low ones greater potency. “GGGAACAGUCCGAGCCNNNNNNNNNNNNNNNNNNNNNNNNNNNNNNCGCGCGGAGCUCGCG [random pool RNA (30 nt randomized)]” showed an IC50 in series [1] of 0.021 nM.

Regarding GGGUCUGGCCC (ssRNA) [11-mer RNA], in series [2], half-maximal inhibition (IC50) required 430 nM.
